The chains behind the UniProt entries cited, without tags or fusion partners. Where a name states a change or a piece, a line headed by the entry shows the natural chain unless it says otherwise. Residues count along the entry.
UniProt Q5JSH3, 340-389: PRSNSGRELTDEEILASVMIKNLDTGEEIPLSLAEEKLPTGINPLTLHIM
UniProt P62491: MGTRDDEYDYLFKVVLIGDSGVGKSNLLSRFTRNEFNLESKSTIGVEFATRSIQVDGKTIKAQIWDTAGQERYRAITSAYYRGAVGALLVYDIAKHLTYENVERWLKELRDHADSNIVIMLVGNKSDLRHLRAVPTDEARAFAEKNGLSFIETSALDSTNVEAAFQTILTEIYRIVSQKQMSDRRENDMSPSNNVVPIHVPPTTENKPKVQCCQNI

According to article PMC9808001:

Target: Strep-His WDR44 (340–389) (human) (UniProt Q5JSH3)
Assay: BLI; His-WDR44 immobilised on anti-penta-His tips, dose response of Rab11 (10–1000 nM), triplicate; KD estimated from the normalised response by one-site binding nonlinear regression; 30 °C; 20 mM Hepes pH 7.5, 150 mM NaCl, 1 mM MgCl2, bovine serum albumin, 0.002% Tween-20

Rab11a (GTPγS-loaded) (from UniProt P62491 1-216) (natural protein)
Kd: 75 nM
